Assay results from patent US20250161419A1, “SERPIN PEPTIDES AND METHODS OF USING THE SAME” (SERPIN PHARMA, LLC, priority 2022, published 2025).

Tests used:
[1] = system: mechanical hypersensitivity after PNL in mice; experiment: Neuropathic pain model, partial nerve ligation (PNL), tactile allodynia by von Frey filaments; type: in vivo, mouse; details: male mice
Experimental: Neuropathic pain model: Mice (n=30) were randomly assigned to two different groups: SP163M (2 μg/g; s.c. 100 μl) and vehicle (H20 s.c. 100 μl). Mice were treated 1 h prior to partial nerve ligation (PNL) and then daily at least 1 h prior to behavior testing for 2 weeks. PNL studies were performed as previously disclosed^59 and adapted for mice.^57 Male mice were anesthetized with 3% isoflurane (Vetone, USA) in 1.5 L/min oxygen (Praxair, USA) and maintained with 2.5% isoflurane. An incision was made along the long axis of the femur. The sciatic nerve was exposed at mid-thigh level by separating the biceps femoris and the gluteus superficialis and then carefully cleared of surrounding connective tissue. A 9-0 nylon suture (Ethicon, Inc., Somerville, NJ, USA) was inserted into the nerve and ligated so that the one-third to one-half of the nerve was included. The muscle and skin layers were closed using Reflex7 7 mm stainless steel wound clips (CellPoint Scientific, Inc., Gaithersburg, MD, USA). For behavior testing, mice were acclimated, and baseline tested for one week prior to PNL. […] Filaments were presented in a consecutive fashion either ascending or descending using the up-down method as previously disclosed^60 and modified for mice.^57,61 The filament that caused paw withdrawal 50% of the time (the 50% PWT) was determined. […]

phospho-ERK1/2 = experiment: Cell signaling analysis in PC12 cells, immunoblot of phospho-ERK1/2; type: cell-based, rat
Experimental: Cell signaling analysis: Rat PC12 cells were purchased from ATCC (CRL-1721). PC12 cells were maintained in high glucose DMEM (Gibco, USA) containing 10% heat-inactivated FBS (Gibco, USA), 5% HyClone heat-inactivated horse serum (Cytiva, USA), penicillin (100 units/ml) and streptomycin ([…]) in 6-well plates that were pre-coated with 0.01 mg/ml type IV collagen (Sigma-Aldrich, St. Louis, MO, USA). Cells were transferred to serum-free medium (SFM) 4 h prior to adding effectors, and then treated with SP163M (2.4, 24 or 240 nM); EI-tPA (12 nM), NGF (0.36 nM), or vehicle (PBS) for 10 min. In some cases, cells were pre-incubated with the competitive antagonist of LRP1, GST-RAP (150 nM) for 15 min or electroporated using the Rat Neuron Nucleofector Amaxa Kit (Lonza Biosciences) and incubated with siRNA to silence LRP1 expression (siLRP1; M-094191-01-0010, Dharmacon) for 48 h. Control cells were transfected with non-targeting control (NTC) siRNA (NTC; D-001810-10-05, Dharmacon). […] Equal amounts of protein from cell lysates (20 μg), as determined by BCA Protein Assay (ThermoFisher Scientific, Waltham, MA, USA), were subjected to 10% SDS-PAGE and electro-transferred to nitrocellulose membranes. […]

## CCCC[C@H](NC(=O)[C@H](CC(C)C)NC(=O)[C@H](Cc1ccccc1)NC(=O)[C@@H](NC(=O)[C@H](Cc1ccccc1)NC(=O)[C@@H]1CCCN1C(=O)[C@H](CCCCN)NC(=O)[C@H](CC(N)=O)NC(=O)[C@H](Cc1ccccc1)NC(=O)[C@H](CCCCN)NC(=O)[C@@H](NC(C)=O)C(C)C)C(C)C)C(=O)N[C@H](C(=O)N[C@@H](CCC(=O)O)C(=O)N[C@@H](CCC(N)=O)C(=O)N[C@@H](CC(N)=O)C(=O)N[C@H](C(=O)N[C@@H](CCCCN)C(N)=O)[C@@H](C)O)[C@@H](C)CC [SP163M, Ac-VKFNKPFVFLNIeIEQNTK-NH2]
[1]; 2 μg/g s.c. 1 h before PNL then daily for two weeks
  development of mechanical hypersensitivity (tactile allodynia, 50% PWT): did not develop mechanical hypersensitivity
[1]; 2 μg/g s.c. daily
  duration of anti-allodynic effects: sustained throughout day 9 post injury
phospho-ERK1/2; 48 h after transfection
  activation of ERK1/2 in cells transfected with LRP1-specific siRNA: ERK1/2 was not activated
phospho-ERK1/2; SP163M 24 or 240 nM, NGF 0.36 nM, RAP 150 nM pretreatment 15 min
  activation of phospho-ERK1/2 after 10 min, with or without RAP: activated Akt and EKR1/2 in PC12 cells after 10 min that was blocked by the addition of the 39 kDa LRP1 antagonist, RAP
